Ab-14 light chain CDR variants: yeast mating affinities

Target peptide (SARS-CoV-2 spike, HR2 region): PDVDLGDISGINAS

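Library AAYL50 holds single substitutions and randomly drawn double and triple substitutions in the CDRs. The assay is AlphaSeq: two haploid yeast populations carry antibody and antigen on their surface. The frequency of each diploid, read from paired DNA barcodes, reflects how well the two displayed proteins bind. Each replicate has its own calibration line, from reference interactions of the BCL2 family. The assay was run in three technical replicates.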

Parent: Ab-14, a human scFv built as VH, a (GGGGS)3 linker, VL. Only the CDRs of the light chain vary.
VH: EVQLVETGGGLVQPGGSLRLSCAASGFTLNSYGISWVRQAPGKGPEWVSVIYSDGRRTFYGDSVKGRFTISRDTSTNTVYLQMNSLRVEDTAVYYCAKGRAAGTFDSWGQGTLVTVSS
VL: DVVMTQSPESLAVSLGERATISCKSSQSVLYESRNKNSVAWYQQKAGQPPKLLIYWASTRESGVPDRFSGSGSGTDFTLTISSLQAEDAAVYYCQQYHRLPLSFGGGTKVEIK

Each variant is given by its three light chain CDRs, as the data file delimits them; those of the parent are KSSQSVLYESRNKNSVA, WASTRES, QQYHRLPLS.
Every variant below is changed at V29 of the VL (sequential numbering).
Each Kd is an estimate from the mating assay, the geometric mean of the replicates in which the pair was seen; lower is stronger.
"no signal" means that the variant was in the library but no mating with the target was seen in any replicate; the authors take this as a sign of poor binding, and no number exists.
Nonspecific signal, from three strains lacking the peptide, appeared in 18% of pairings of library AAYL50, centred on 15 µM (5% of these signals below 970 nM); values are not corrected for it.
For reference, the parent read 4.4 nM as the reference entry and 48 nM as a member of this library.

| CDR-L1 | CDR-L2 | CDR-L3 | apparent Kd | replicates with signal |
|---|---|---|---|---|
| KSSQSALYESRNKNSVA | WACTRES | QQYHRLPWS | 20 nM | 1/3 |
| KSSQSCLWESRNKNSVA | WASTRES | FQYHRLPLS | no signal | 0/3 |
| KSSQSMLYESRHKNSVA | WASTRIS | QQYHRLPLS | 14 nM | 3/3 |
| KSSQSMLYESRIKNSVA | WASTRES | QQYERLPLS | 13 nM | 3/3 |
| GSSQSILYESRNKNSVA | WASTHES | QQYHRLPLS | 5.4 µM | 1/3 |
| KSSQSYLYASRNKNSVA | WYSTRES | QQYHRLPLS | no signal | 0/3 |
| KSSVSMLYESRNKNSVE | WASTRES | QQYHRLPLS | no signal | 0/3 |
| KSSQSWLYESRNKNSVA | WASTRES | WQYHRLPLS | no signal | 0/3 |
| KSSQSTLYEARNKNSVA | WASTRES | QQYHRLPLS | 13 nM | 3/3 |
| KSSQSSLYEQRNKNSVA | WASTRES | PQYHRLPLS | 160 nM | 2/3 |
| KSSYSFLYESRNINSVA | WASTRES | QQYHRLPLS | 7.6 nM | 3/3 |
| KSSQSTGYETRNKNSVA | WASTRES | QQYHRLPLS | 6.2 nM | 3/3 |
| KSSQSELYESRNKNSMA | WASTRES | QQNHRLPLS | no signal | 0/3 |
| KSSGSFLYESRNKNSVA | WASTRES | PQYHRLPLS | 9.9 nM | 3/3 |
| KSSQSDLYESRNKNSVA | WASTRHS | QQYHRLPLS | 5.5 nM | 3/3 |
| HSSQSNLYESRNKNSVA | WASTRES | VQYHRLPLS | no signal | 0/3 |
| KSSQSILYESRNKNSVA | WASTRES | QQYHRLPLS | 6.2 nM | 3/3 |
| KSSQSFLYESRNKNSCA | WASTRES | QQYHRLPLS | 9.9 µM | 1/3 |
| KSSQSMLYEKRNKNSVA | WASTRES | QQYHRLPWS | no signal | 0/3 |
| KSSQSWLYESRNKNSVA | WASTRES | QDYHRLPLS | 4.0 nM | 3/3 |
| KLSQSSLYESRNKNSVA | WASTRES | QQYHREPLS | 33 µM | 1/3 |
| KSSQSWLYESRNKNSVA | WASNRKS | QQYHRLPLS | no signal | 0/3 |
| KSSQSCLYESRNKNSVD | WASTRES | QQYHRLPLR | 34 µM | 1/3 |
| KSSQCILYESRNKNSVA | WATTRES | QQYHRLPLS | 1.1 µM | 1/3 |
| KSSQSRLYESRNKNWVA | WASTRES | QQSHRLPLS | 79 µM | 2/3 |
| KSSQSILYESRNKNSVA | WAITRES | QQYHRLPKS | no signal | 0/3 |
| KSSQSGLYESRNKNSVA | WASTRES | QQYHRLPLS | 6.1 nM | 3/3 |
| KSSQSRLYESRAKNSVA | WAHTRES | QQYHRLPLS | 470 nM | 3/3 |
| KSSQSKLYESRNKNSVA | MASTREK | QQYHRLPLS | 2.0 nM | 3/3 |
| KSSQSCAYESRNKNSVA | WASTRES | QKYHRLPLS | no signal | 0/3 |
| KSSQSLLYESRNKNSVA | WASTRES | QQYHRLPLS | 2.9 nM | 3/3 |
| KSSQQMLYESRNKNSVA | WASTRES | QQYGRLPLS | 4.5 nM | 3/3 |
| KSSQSPLYESRNKNSVA | WASTRES | QFYHRLPLS | 120 nM | 3/3 |
| KSSQSNLYESREKNSVA | WASTRES | QHYHRLPLS | 9.2 µM | 2/3 |
| KSSQSILYESRNKNSVA | WASTRES | QDYHHLPLS | 120 nM | 3/3 |
| KSSQSELYESRNKNSPA | WASTRES | QYYHRLPLS | 5.0 µM | 2/3 |
| KSSQSTLYESRNNNSVA | WASTRES | QQYHRLPIS | 100 nM | 3/3 |
| KSSQSHLAESRNKASVA | WASTRES | QQYHRLPLS | 79 nM | 3/3 |
| KSSQSWLYESRNKNSVA | TASERES | QQYHRLPLS | 3.2 nM | 3/3 |
| KSSQSMLYESRNKNRVA | WASTRES | QQYNRLPLS | 87 nM | 3/3 |
| KSSQSALYFSRNKNSVA | WASTRES | QQYHRLPVS | 2.4 µM | 3/3 |
| KSSQSSLYESRNNNSVA | WASTRES | QQYHRLPQS | 42 nM | 3/3 |
| KSSQSYLYESRNKNSVT | WYSTRES | QQYHRLPLS | no signal | 0/3 |
| KSSQSRLSESRNKNSVE | WASTRES | QQYHRLPLS | no signal | 0/3 |
| KSSQSDLYISRNKNSVA | WASTRES | QQYHRLPLS | 560 µM | 1/3 |
| KSSQSYQYESRNKNSVA | WSSTRES | QQYHRLPLS | 130 nM | 3/3 |
| DSSQSHLYESRNKNSVA | WASTREH | QQYHRLPLS | 1.3 µM | 3/3 |

The closing 4 entries, repeated:

| CDR-L1 | CDR-L2 | CDR-L3 | apparent Kd | replicates with signal |
|---|---|---|---|---|
| KSSQSRLSESRNKNSVE | WASTRES | QQYHRLPLS | no signal | 0/3 |
| KSSQSDLYISRNKNSVA | WASTRES | QQYHRLPLS | 560 µM | 1/3 |
| KSSQSYQYESRNKNSVA | WSSTRES | QQYHRLPLS | 130 nM | 3/3 |
| DSSQSHLYESRNKNSVA | WASTREH | QQYHRLPLS | 1.3 µM | 3/3 |

Reference: Engelhart et al. 2022, doi:10.1038/s41597-022-01779-4. File: FLAb, binding data.